B1: Timeless-Tipin complex (Tim residues 1-1134 with full-length Tipin), tags cleaved (complex, mouse)
chain 1: MDLYMMNCELLATCSALGYLEGGTYHKEPDCLESVKDLIRYLRHEDETRDVRQQLGAAQILQSDLLPILTQHRQDKPLFDAVIRLMVNLTQPALLCFGSVPKDSSVRHHFLQVLTYLQAYKEAFASEKAFGVLSETLYELLQLGWEDRQEEDNLLIERILLLVRNILHVPANLEQEKSIDDDASIHDRLLWAIHLSGMDDLLLFLSSSSAEQQWSLHVLEIISLMFRDQTPEQLAGVGQGRLAQERSTDVAELEVLRQREMAEKRARALQRGNRHSRFGGSYIVQGLKSIGEKDVVFHKGLHNLQNYSSDLGKQPRRVPKRRQAAQELSVHRRSVLNVRLFLRDFCSEFLENCYNPLMGAVKDHLLRERAQQHDETYYMWAMAFFMAFNRAATFRPGLVSETLSIRTFHFVEQNLTNYYEMMLTDRKEAASWARRMHLALKAYQELLATVNEMDMCPDEAVRESSRIIKNNIFYMMEYRELFLALFRKFDERYHPRSFLRDLVETTHLFLKMLERFCRSRGNLMVQNKRKKRKKKKKVQDQGVAFSQSPGELEAMWPALAEQLLQCAQDPELSVDPVVPFDAASEVPVEEQRVEAMVRIQDCLTAGQAPQALALLRSAREVWPEGNAFGSPVISPGEEMQLLKQILSTPLPRQQEPEEGDAEEEEEEEEEEELQVVQVSEKEFNFLEYLKRFASSTIVRAYVLLLRSYRQNSAHTNHCIAKMLHRLAHGLGMEALLFQLSLFCLFNRLLSDPAAAAYKELVTFAKYIIGKFFALAAVNQKAFVELLFWKNTAVVREMTQGYGSLDSGSSSHRAPLWSPEEEAQLQELYLAHKDVEGQDVVETILAHLKVVPRTRKQVIHHLVRMGLADSVKEFQKRKGTQIVLWTEDQELELQRLFEEFRDSDDVLGQIMKNITAKRSRARVVDKLLALGLVSERRQLYKKRRKKLAPSCMQNGEKSPRDPWQEDPEEEDEHLPEDESEDEESEEGLPSGQGQGSSSLSAENLGESLRQEGLSAPLLWLQSSLIRAANDREEDGCSQAIPLVPLTEENEEAMENEQFQHLLRKLGIRPPSSGQETFWRIPAKLSSTQLRRVAASLSQQENEEEREEEPEPGVPGEQGPSEEHRTEALRALLSAR
chain 2: MLEQEENGLFEIPDYEHVEDETFPPFPPPASPERDPADAEPEEGSGSGVPVPPKRTVKRNLPKLDATRLTSERGLPALRHVFDKTKFKGKGHEAEDLKTLIRHMEHWAHRLFPKLQFEDFIDRVENLGNKKEVQTCLKRIRLDLPIVHEDFVNNNDEVGEANGPDVSATGFDPFLTSSSDSRKFASEPTRSLTEEQQQRIERNKQLALERRQAKLLSNSQSLENDVTVEENSTGEDQEESNGLNIDTADGPHDVPFASTHEEEQCKAEETQLDHTNLD
notes: Timeless (Tim), mouse, AB019001, aa 1-1134; lacks the C-terminal residues 1135-1197; Constructs are written His-Tim and His-GST-Tipin; also called Tim-Tipin; TTP; source: E. coli BL21 (DE3) gold with pRARE, co-expressed, purified (Ni-NTA, Q-sepharose, 3C cleavage, SEC); copies: 1 + 1
B2: RPA DNA-binding core with the WH domain (RPA70 190-623 / RPA32 43-270 / RPA14 1-121) (complex, mouse)
chain 1: QSKVVPIASLTPYQSKWTICARVTNKSQIRTWSNSRGEGKLFSLELVDESGEIRATAFNEQVDKFFPLIEVNKVYYFSKGALKIANKQFSAVKNDYEMTFNNETSVLPCEDGHHLPTVQFDFTGIGDLESKAKDALVDIIGICKSYEDSIKITVKSNNREVAKRNIYLMDMSGKVVTTTLWGEDADKFDGSRQPVMAIKGARVSDFGGRSLSVLSSSTVIVNPDIPEAYKLRGWFDSEGQALDGVSISDHRSGGAGGGNTNWKTLHEAKSENLGQGDKADYFSTVAAVVFLRKENCMYQACPTQDCNKKVIDQQNGLYRCEKCDREFPNFKYRMILSANIADFQENQWVTCFQESAEAILGQNTMYLGELKEKNEQAFEEVFQNANFRSFTFRIRVKLETYNDESRIKATVMDVKPVDFRDYGRRLIANIRKNM
chain 2: AQHIVPCTISQLLSATLTDEVFRIGDVEISQVTIVGIIRHAEKAPTNIVYKIDDMTAPPMDVRQWVDTDDASGENAVVPPETYVKVAGHLRSFQNKKSLVAFKIIPLEDMNEFTAHILEVVNSHMMLSKPNSQASAGRPSMSNPGMSEPGNFSGNNFMPANGLTVVQNQVLNLIKACPRPEGLNFQDLRSQLQHMPVPSIKQAVDFLCNEGHIYSTVDDDHFKSTDAE
chain 3: MEDIMQLPKARVNASMLPQYIDRPVCFVGKLEKIHPTGKMFILSDGEGKNGTIELMEPLDEEISGIVEVVGKVTAKATVLCASYTLFKEDTNRFDLELYNEAVKIINELPQFFPVGLPQHE

Test [1] deals with B2. Nature of the test: SEC + SEC-MALS; analytical SEC on Superose 6 3.2/PC in Buffer A (20 mM Hepes pH 7.5, 125 mM NaCl, 2 mM DTT, 0.01 mM zinc acetate), Tim-Tipin:RPA 16 μM:16 μM or 16 μM:32 μM; static light scattering (SLS) on Superdex 200 5/150, 2 mg/ml. The conditions noted are these: both partners purified. On the technique in general: In gel filtration, larger molecules generally elute earlier.

Test [2] concerns the target B1. Nature of the test: MST; 100 nM Cy3-labelled RPA titrated with non-labelled Tim-Tipin (25-80 550 nM) in Buffer A, 10 min at RT; Hill fit; three repeats. The conditions noted are these: both partners purified.

In general, stoichiometry N refers to a count of units in the complex or per binding partner. For the molecule B1, the “stoichiometry N” value in test [1] was found to be 1.
For orientation: Kd means the equilibrium constant for the complex coming apart. A high value points to lower affinity. In the case of B2, binding in test [2] was characterised by a dissociation constant (Kd) of 180 ± 40 nM.
